Experimental data published in PubChem BioAssay (Tox21).
These results got no clear call from the source, so the numbers are uncertain. Unless noted, calls follow the shape of the dose curve; as a rule, active = well fitted curve in the direction sought with a large enough effect in the repeat runs; inconclusive = weak or mixed curves; inactive = no such curve, though single readings can be large; an effect the other way counts as inactive or inconclusive.

Chains of the proteins cited; added tags and fusions are not shown. Lines headed by an entry give the natural chain unless they say otherwise; changes in a name come on top.
UniProt P19793: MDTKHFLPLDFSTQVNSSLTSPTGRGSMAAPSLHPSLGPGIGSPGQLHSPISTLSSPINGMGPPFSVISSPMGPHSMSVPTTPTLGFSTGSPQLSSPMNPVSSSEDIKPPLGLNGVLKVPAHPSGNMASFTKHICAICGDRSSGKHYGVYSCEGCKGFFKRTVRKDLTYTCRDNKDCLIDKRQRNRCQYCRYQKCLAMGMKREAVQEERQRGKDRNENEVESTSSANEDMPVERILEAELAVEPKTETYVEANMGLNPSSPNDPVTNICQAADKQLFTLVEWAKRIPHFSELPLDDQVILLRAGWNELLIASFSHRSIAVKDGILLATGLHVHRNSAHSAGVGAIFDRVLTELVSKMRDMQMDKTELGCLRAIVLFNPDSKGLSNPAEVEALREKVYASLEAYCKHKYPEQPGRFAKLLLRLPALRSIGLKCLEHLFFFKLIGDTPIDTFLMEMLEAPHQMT
UniProt P08659, whole entry, looked up: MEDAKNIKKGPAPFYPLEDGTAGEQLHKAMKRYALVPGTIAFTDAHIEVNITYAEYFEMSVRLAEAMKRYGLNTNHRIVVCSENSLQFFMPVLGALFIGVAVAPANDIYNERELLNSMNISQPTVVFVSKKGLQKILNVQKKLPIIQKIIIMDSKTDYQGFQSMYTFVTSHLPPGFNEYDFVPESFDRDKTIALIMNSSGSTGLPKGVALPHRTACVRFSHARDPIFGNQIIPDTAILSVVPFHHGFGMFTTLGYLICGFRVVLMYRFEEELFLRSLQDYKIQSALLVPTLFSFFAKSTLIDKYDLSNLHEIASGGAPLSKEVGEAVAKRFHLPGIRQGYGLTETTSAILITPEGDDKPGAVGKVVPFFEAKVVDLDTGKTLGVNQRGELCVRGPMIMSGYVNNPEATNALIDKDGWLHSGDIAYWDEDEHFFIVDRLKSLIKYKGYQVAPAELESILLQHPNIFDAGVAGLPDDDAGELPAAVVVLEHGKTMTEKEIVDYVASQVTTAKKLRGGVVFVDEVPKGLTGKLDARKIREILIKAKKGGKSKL
UniProt P10635, whole entry, looked up: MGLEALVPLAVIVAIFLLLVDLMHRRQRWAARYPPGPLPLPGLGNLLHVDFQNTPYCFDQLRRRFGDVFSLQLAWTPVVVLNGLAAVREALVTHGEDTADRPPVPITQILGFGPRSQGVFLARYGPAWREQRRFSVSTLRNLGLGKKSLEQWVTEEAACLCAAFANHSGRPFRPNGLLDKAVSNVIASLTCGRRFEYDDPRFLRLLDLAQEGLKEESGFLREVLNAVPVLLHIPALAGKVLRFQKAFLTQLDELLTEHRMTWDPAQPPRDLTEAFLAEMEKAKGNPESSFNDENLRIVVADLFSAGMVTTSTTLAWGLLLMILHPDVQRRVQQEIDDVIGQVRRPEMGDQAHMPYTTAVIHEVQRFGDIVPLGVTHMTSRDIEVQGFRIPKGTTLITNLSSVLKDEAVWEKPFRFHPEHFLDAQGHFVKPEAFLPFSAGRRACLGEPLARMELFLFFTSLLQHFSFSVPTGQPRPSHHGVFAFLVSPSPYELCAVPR
UniProt P05177, whole entry, looked up: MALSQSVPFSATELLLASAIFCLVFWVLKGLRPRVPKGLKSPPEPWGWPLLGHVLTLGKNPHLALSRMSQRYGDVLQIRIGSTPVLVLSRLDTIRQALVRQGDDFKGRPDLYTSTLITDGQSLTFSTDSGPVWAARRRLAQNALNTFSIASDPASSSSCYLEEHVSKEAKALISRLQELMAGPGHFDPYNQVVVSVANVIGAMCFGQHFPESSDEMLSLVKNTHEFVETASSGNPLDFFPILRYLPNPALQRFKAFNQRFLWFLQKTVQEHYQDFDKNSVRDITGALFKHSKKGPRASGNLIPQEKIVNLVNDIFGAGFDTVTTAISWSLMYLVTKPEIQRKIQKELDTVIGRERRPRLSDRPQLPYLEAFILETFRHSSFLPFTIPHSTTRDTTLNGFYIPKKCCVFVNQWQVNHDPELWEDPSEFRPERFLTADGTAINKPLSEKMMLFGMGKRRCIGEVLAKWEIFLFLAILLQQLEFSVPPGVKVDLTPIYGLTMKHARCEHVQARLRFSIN
UniProt P10275: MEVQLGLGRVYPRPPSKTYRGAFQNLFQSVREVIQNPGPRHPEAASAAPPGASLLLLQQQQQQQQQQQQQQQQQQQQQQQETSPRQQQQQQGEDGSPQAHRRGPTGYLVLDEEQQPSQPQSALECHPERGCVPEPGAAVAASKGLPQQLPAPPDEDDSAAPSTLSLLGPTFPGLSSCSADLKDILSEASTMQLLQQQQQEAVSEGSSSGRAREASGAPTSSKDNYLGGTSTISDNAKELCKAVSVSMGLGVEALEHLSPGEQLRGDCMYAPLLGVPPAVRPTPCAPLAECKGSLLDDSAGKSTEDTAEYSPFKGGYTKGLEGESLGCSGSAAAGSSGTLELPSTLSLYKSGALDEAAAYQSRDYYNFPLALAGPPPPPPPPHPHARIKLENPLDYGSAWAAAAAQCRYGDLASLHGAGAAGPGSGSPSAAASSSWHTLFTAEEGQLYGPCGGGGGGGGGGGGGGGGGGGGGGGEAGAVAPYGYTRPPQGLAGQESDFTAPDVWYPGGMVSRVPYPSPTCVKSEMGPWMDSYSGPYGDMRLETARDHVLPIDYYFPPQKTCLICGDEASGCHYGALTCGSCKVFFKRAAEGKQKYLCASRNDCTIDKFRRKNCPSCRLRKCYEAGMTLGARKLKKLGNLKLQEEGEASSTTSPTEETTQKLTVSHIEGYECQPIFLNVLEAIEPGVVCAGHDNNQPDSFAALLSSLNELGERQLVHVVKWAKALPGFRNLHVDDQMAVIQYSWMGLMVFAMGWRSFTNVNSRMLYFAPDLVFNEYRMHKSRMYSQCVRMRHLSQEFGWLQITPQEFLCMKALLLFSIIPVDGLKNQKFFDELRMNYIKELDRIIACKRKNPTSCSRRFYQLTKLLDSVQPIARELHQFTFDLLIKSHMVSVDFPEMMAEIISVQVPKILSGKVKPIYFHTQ
UniProt Q96RI1: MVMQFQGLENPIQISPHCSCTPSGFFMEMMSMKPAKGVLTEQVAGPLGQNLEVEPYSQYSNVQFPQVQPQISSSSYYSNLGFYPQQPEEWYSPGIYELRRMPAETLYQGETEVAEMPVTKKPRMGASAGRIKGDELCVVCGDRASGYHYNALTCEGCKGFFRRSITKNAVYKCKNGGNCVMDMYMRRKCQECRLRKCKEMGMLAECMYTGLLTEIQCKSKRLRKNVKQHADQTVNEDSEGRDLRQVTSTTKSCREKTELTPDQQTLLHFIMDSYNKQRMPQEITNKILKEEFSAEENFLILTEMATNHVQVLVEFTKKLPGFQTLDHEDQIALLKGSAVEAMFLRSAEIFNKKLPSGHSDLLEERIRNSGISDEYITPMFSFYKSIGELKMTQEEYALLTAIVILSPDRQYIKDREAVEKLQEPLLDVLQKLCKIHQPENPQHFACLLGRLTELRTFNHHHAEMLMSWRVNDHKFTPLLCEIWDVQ
UniProt P03372, whole entry, looked up: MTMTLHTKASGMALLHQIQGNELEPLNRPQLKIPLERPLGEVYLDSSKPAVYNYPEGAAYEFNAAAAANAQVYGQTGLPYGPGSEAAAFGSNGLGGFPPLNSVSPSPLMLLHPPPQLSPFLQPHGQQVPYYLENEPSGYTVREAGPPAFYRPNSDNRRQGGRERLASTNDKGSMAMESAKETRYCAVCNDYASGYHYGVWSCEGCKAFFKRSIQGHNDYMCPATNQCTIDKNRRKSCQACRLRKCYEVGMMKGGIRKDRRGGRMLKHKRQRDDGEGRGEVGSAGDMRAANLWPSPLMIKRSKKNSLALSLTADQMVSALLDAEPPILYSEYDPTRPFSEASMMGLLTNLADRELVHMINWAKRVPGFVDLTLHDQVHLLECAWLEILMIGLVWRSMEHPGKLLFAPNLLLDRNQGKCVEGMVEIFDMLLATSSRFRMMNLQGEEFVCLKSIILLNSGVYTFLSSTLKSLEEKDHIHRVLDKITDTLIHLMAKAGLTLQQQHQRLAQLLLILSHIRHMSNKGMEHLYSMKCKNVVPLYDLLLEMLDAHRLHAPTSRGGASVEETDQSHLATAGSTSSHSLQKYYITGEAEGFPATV
UniProt P06401: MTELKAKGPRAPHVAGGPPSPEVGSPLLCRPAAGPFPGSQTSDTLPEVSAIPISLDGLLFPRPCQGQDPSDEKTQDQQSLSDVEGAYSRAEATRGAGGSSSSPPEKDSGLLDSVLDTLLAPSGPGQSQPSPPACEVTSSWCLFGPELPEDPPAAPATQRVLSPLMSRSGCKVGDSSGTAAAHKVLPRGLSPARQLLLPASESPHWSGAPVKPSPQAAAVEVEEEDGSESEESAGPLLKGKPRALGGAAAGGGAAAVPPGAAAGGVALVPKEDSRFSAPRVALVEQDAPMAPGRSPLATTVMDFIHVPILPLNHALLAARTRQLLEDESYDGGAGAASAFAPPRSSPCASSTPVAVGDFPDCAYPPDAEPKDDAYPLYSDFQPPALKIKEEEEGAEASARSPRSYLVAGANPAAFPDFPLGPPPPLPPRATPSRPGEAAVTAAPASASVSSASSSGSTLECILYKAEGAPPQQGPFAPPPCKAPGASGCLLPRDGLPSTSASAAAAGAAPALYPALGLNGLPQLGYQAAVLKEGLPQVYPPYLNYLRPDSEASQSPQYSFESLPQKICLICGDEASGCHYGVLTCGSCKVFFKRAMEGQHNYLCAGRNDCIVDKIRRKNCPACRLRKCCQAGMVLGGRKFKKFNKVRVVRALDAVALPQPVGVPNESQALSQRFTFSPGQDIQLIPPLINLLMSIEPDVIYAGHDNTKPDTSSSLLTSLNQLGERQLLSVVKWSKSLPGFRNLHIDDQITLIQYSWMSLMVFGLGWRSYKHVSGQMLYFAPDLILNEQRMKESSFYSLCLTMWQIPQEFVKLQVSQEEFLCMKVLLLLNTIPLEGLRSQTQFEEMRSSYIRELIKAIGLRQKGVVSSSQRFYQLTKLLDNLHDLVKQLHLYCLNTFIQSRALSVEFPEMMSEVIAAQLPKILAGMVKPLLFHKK

What was measured:
[1] = qHTS assay for identifying genotoxic compounds that show differential cytotoxicity against isogenic chicken DT40 cell lines with known DNA damage response pathways - Rad54/Ku70 mutant cell line (AID 743015); conditions: DT40 Rad54/Ku70 mutant viability, CellTiter-Glo, 40 h; also: potency is read from the fitted curve at half-maximal effect; nearly all actives have a fitted effect of over 60% in size
[2] = qHTS assay to identify small molecule antagonists of the vitamin D receptor (VDR) signaling pathway - cell viability counter screen (AID 743225); conditions: VDR-bla HEK293T viability, CellTiter-Glo luminescence, 16 h; also: potency is read from the fitted curve at half-maximal effect; nearly all actives have a fitted effect of over 50% in size
How it was run: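 Cytotoxicity counter screen read by CellTiter-Glo luminescence (30 min, room temperature) in the same wells as the VDR-bla antagonist readout. HEK 293T VDR-UAS-bla cells had 16 h at 37C with compound and 3 nM (final) 1-alpha,25-dihydroxyvitamin D3, then 2 h with FRET substrate.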

[3] = biological target: Retinoic acid receptor RXR-alpha (Homo sapiens) (UniProt P19793); assay: qHTS assay to identify small molecule agonists of the RXR signaling pathway (AID 1159527; calls by dose curve; also: % is scaled to controls: 0 for no effect and ±100 for the full control effect; nearly all actives have a fitted effect of over 35% in size); conditions: HEK293T RXRa-UAS-bla, beta-lactamase ratio, 16 h; activation: at 76.8 µM (top of the series)
[4] = biological target: Luciferin 4-monooxygenase (Photinus pyralis) (UniProt P08659); assay: qHTS assay to identify small molecule inhibitors of firefly luciferase (AID 1224835); also: potency is read from the fitted curve at half-maximal effect; nearly all actives have a fitted effect of over 25% in size; conditions: purified P. pyralis luciferase, luminescence inhibition
How it was run: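 Quantitative HTS format; KM concentrations of both substrates. Purified P. pyralis FLuc activity quantified from luminescence images.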

[5] = qHTS assay to identify small molecule agonists of the hypoxia (HIF-1) signaling pathway - cell viability counter screen (AID 1224844; calls by dose curve; also: potency is read from the fitted curve at half-maximal effect; nearly all actives have a fitted effect of over 50% in size); conditions: HRE-bla ME-180 viability, CellTiter-Glo luminescence, 17 h
How it was run: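 Cells (HRE-bla ME-180, 2,000 per well) sat 5 hrs at 37C, got compound for 17 hrs, were read for CCF4-AM FRET, and were finally lysed with CellTiter-Glo for a 30 min room-temperature luminescence read.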

[6] = qHTS assay to identify small molecule antagonists of the sonic hedgehog signaling (Shh) pathway (AID 1259369; calls by dose curve; also: potency is read from the fitted curve at half-maximal effect; nearly all actives have a fitted effect of over 45% in size); conditions: NIH/3T3 Gli1-Luc reporter, Shh antagonist, luminescence 24 h
How it was run: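 For antagonist detection, the reporter line received test compounds together with conditioned medium, incubated 24hr at 37 C, 5% CO2, then luminescence was recorded following 30min room-temperature luciferase reagent incubation.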

[7] = qHTS assay to identify small molecule agonists of the estrogen receptor alpha (ER-alpha) signaling pathway in the presence of an antagonist - cell viability counter screen (AID 1259386); conditions: VM7Luc4E2 viability, CellTiter-Fluor fluorescence, 22 h;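 also: potency is read from the fitted curve at half-maximal effect; cells exposed to compounds for 22 h at 37 °C before the viability read; nearly all actives have a fitted effect of over 30% in size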
How it was run: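 Viability counter screen using VM7Luc4E2 (full-length ER-alpha, four ERE-luciferase). The cells were treated with compounds alongside ICI-182,780 10.0nM for 22hr, and live-cell protease fluorescence was quantified with CellTiter-Fluor.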

[8] = biological target: Cytochrome P450 2D6 (Homo sapiens) (UniProt P10635); assay: Cytochrome P450 Family 2 Subfamily D Member 6 (CYP2D6) small molecule antagonists: luciferase reporter qHTS assay (AID 1671196); conditions: P450-Glo CYP2D6 enzyme assay, luciferin luminescence, 1 h; also: potency is read from the fitted curve at half-maximal effect; nearly all actives have a fitted effect of over 50% in size
How it was run: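 Each well received CYP2D6 with its proluciferin substrate and chemical, sat 10 min, then got NADPH regeneration solution for 1 h at room temperature. Luminescence in RLU served as the activity measure.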

[9] = biological target: Cytochrome P450 1A2 (Homo sapiens) (UniProt P05177); assay: Cytochrome P450 Family 1 Subfamily A Member 2 (CYP1A2) small molecule antagonists: luciferase reporter qHTS assay (AID 1671199); conditions: P450-Glo CYP1A2 enzyme, luciferin luminescence, 1 h; also: potency is read from the fitted curve at half-maximal effect; nearly all actives have a fitted effect of over 50% in size
[10] = qHTS assay to identify small molecule antagonists of the androgen receptor (AR) signaling pathway - cell viability counter screen (AID 743033; also: potency is read from the fitted curve at half-maximal effect; nearly all actives have a fitted effect of over 45% in size); conditions: AR-bla HEK293 viability, CellTiter-Glo luminescence, 16 h
Description: National Center for Advancing Translational Sciences [NCATS]
NIH Chemical Genomics Center [NCGC]
U.S. Environmental Protection Agency [EPA]
National Institutes of Environmental Health Sciences [NIEHS]
National Toxicology Program [NTP]
U.S. Food and Drug Administration [FDA]
Androgen receptor (AR), a nuclear hormone receptor, plays a critical role in AR-dependent prostate cancer and other androgen related diseases. Endocrine disrupting chemicals (EDCs) and their interactions with steroid hormone receptors like AR may cause disruption of normal endocrine function as well as interfere with metabolic homeostasis, reproduction, developmental and behavioral functions. […]
AR-bla cells were dispensed at 2,000 cells/5 uL of assay medium per well into black wall/clear-bottom 1536-well plates using a Multidrop Combi (ThermoFisher Scientific, Waltham, MA) dispenser. […] After 1 uL of LiveBLAzerTM B/G FRET substrate was added using a Bioraptr FRD, the plates were incubated at room temperature for 2 h and fluorescence intensity was measured by an Envision plate reader (PerkinElmer, Shelton, CT). For cell viability readout that measures cytotoxicity, 4 ul/well of CellTiter-Glo reagent was added into the assay plates using a Bioraptr FRD. After 30 min incubation at room temperature, the luminescence intensity in the plates was measured using a ViewLux (PerkinElmer) plate reader.

[11] = biological target: Androgen receptor (Homo sapiens) (UniProt P10275); assay: qHTS assay to identify small molecule antagonists of the androgen receptor (AR) signaling pathway (AID 743035; active = well fitted inhibition curve with a large enough effect in the signal ratio in the repeat runs, not every such curve was filed as active; inconclusive = weak or mixed curves, or effect the other way; inactive = no such curve, though single readings can be large or run the other way; the % refers to the signal ratio; also: potency is read from the fitted curve at half-maximal effect); conditions: HEK293 AR-UAS-bla, R1881-stimulated, beta-lactamase FRET, 16 h
[12] = biological target: Androgen receptor (Homo sapiens) (UniProt P10275); assay: qHTS assay to identify small molecule agonists of the androgen receptor (AR) signaling pathway (AID 743036; active = well fitted activation curve with a large enough effect in the signal ratio in the repeat runs, with a control signal flat, not every such curve was filed as active; inconclusive = weak or mixed curves, or effect the other way; inactive = no such curve, though single readings can be large or run the other way; the % refers to the signal ratio; also: potency is read from the fitted curve at half-maximal effect); conditions: HEK293 AR-UAS-bla GripTite, beta-lactamase FRET ratio, 16 h; activation: at 62.4 µM (top of the series)
[13] = qHTS assay to identify small molecule antagonists of the thyroid receptor (TR) signaling pathway (AID 743065); conditions: GH3.TRE-Luc, T3-stimulated luciferase inhibition, 23.5 h; also: potency is read from the fitted curve at half-maximal effect; nearly all actives have a fitted effect of over 55% in size
How it was run: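 GH3.TRE-Luc rat pituitary cells carrying two TR response elements driving luciferase were plated for 4 h, given compound plus 1 nM T3 (final), and incubated 23.5 h at 37 C. ONE-Glo luminescence measured reporter inhibition; CellTiter-Fluor fluorescence tracked cytotoxicity.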

[14] = qHTS assay to identify aromatase inhibitors - cell viability counter screen (AID 743084); conditions: MCF-7 aro ERE viability, CellTiter-Fluor, 24 h;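 also: cells stimulated with testosterone during compound exposure; potency is read from the fitted curve at half-maximal effect; nearly all actives have a fitted effect of over 55% in size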
[15] = biological target: Bile acid receptor (Homo sapiens) (UniProt Q96RI1); assay: qHTS assay to identify small molecule antagonists of the farnesoid-X-receptor (FXR) signaling pathway (AID 743217; active = well fitted inhibition curve with a large enough effect in the signal ratio in the repeat runs, not every such curve was filed as active; inconclusive = weak or mixed curves, or effect the other way; inactive = no such curve, though single readings can be large or run the other way; the % refers to the signal ratio; also: % is scaled to controls: 0 for no effect and ±100 for the full control effect); conditions: HEK293T FXR-UAS-bla, beta-lactamase ratio, CDCA-stimulated, 16 h; activity change, negative = inhibition: at 81.1 µM (top of the series)
How it was run: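 GeneBLAzer FXR-UAS-bla HEK 293T, CDCA-stimulated (50 uM final). Compound treatment 16 h, 37 °C. Detection: beta-lactamase cleavage of B/G FRET substrate, fluorescence.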

[16] = qHTS assay to identify small molecule agonists of the farnesoid-X-receptor (FXR) signaling pathway - cell viability counter screen (AID 743218); conditions: FXR-bla HEK293T viability, CellTiter-Glo luminescence, 16 h; viability change, negative = cytotoxic: at 81.1 µM (top of the series); also: % is scaled to controls: 0 for no effect and ±100 for the full control effect; nearly all actives have a fitted effect of over 45% in size
How it was run: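 Parallel cytotoxicity test: compound-treated (16 h, 37 C) HEK 293T FXR-bla reporter cells were lysed with CellTiter-Glo and luminescence recorded.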

[17] = biological target: Bile acid receptor (Homo sapiens) (UniProt Q96RI1); assay: qHTS assay to identify small molecule agonists of the farnesoid-X-receptor (FXR) signaling pathway (AID 743220; active = well fitted activation curve with a large enough effect in the signal ratio in the repeat runs, not every such curve was filed as active; inconclusive = weak or mixed curves, or effect the other way; the % refers to the signal ratio; also: % is scaled to controls: 0 for no effect and ±100 for the full control effect); conditions: HEK293T FXR-UAS-bla, beta-lactamase FRET ratio, 16 h; activation: at 81.1 µM (top of the series)
[18] = qHTS assay to identify small molecule agonists of the constitutive androstane receptor (CAR) signaling pathway - cell viability counter screen (AID 1224836); conditions: HepG2-CYP2B6-hCAR viability, CellTiter-Fluor, 23 h; PK11195 added to every well; also: potency is read from the fitted curve at half-maximal effect; nearly all actives have a fitted effect of over 45% in size
How it was run: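 Cell viability multiplexed with the CAR agonist screen: CellTiter-Fluor fluorescence after 23 hr at 37 C. HepG2-CYP2B6-hCAR cells got compounds at 15 concentrations with PK11195 at 0.75 uM final.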

[19] = qHTS assay to identify small molecule antagonists of the estrogen related receptor (ERR) signaling pathway from Tox21 library (AID 1224848); conditions: ERR reporter cell line, luciferase antagonist mode, 18 h
How it was run: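 Cells: ERR line, 2,000/well; 6 h preincubation 37 C/5% CO2. Cpd in DMSO via pin tool; 18 h, 37 C. ONE-Glo, 30 min RT, luminescence.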

[20] = qHTS RealTime-Glo MT Cell Viability Assay in HEK293 cells - 16 hour (AID 1224872); conditions: RealTime-Glo luminescence
How it was run: (§1)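 Nonlytic real-time viability readout: viable cells convert prosubstrate to NanoLuc substrate, giving luminescence proportional to live cell number. HEK293, 600 cells/well, compound added after 5 h, continuous culture at 37 C.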

[21] = qHTS RealTime-Glo MT Cell Viability Assay in HEK293 cells - 40 hour (AID 1224874); conditions: RealTime-Glo luminescence
How it was run: (§2)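 Viable HEK293 cells reduce a cell-permeant prosubstrate; the product diffuses out and is consumed by NanoLuc in the medium to give light. Compounds went in after a 5 h incubation and plates were read over the treatment course.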

[22] = qHTS RealTime-Glo MT Cell Viability Assay in HEK293 cells - 24 hour (AID 1224886); conditions: RealTime-Glo luminescence
How it was run: as §1

[23] = qHTS RealTime-Glo MT Cell Viability Assay in HEK293 cells - 8 hour (AID 1224887); conditions: RealTime-Glo luminescence
How it was run: as §2

[24] = biological target: Estrogen receptor (Homo sapiens) (UniProt P03372); assay: qHTS assay to identify small molecule antagonists of the estrogen receptor alpha (ER-alpha) signaling pathway using the BG1 cell line in the presence of 0.1 nM 17-beta-estradiol (AID 1259244); conditions: VM7Luc4E2 (BG1) ERE-luciferase, antagonist mode, 0.1 nM E2, 22 h
[25] = biological target: Progesterone receptor (Homo sapiens) (UniProt P06401); assay: qHTS assay to identify small molecule agonists of the progesterone receptor (PR) signaling pathway (AID 1346784; calls by dose curve; also: % is scaled to controls: 0 for no effect and ±100 for the full control effect; nearly all actives have a fitted effect of over 30% in size); conditions: PR-UAS-bla HEK293T, beta-lactamase FRET ratio, 16 h; activation: at 92.4 µM (top of the series)
How it was run: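 Agonist qHTS: compounds pinned onto 3,000 PR-UAS-bla HEK 293T cells per well in charcoal-stripped serum medium, 16hr at 37C, then beta-lactamase activity measured by LiveBLAzer FRET fluorescence after 2 hours at room temperature.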

[26] = biological target: Progesterone receptor (Homo sapiens) (UniProt P06401); assay: qHTS assay to identify small molecule antagonists of the progesterone receptor (PR) signaling pathway (AID 1346795; active = well fitted inhibition curve with a large enough effect in the signal ratio in the repeat runs, not every such curve was filed as active; inconclusive = weak or mixed curves; the % refers to the signal ratio; also: % is scaled to controls: 0 for no effect and ±100 for the full control effect); conditions: PR-UAS-bla HEK293T, beta-lactamase FRET ratio, 16 h; activity change, negative = inhibition: at 92.4 µM (top of the series)
How it was run: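 Antagonist mode with agonist R5020 at 1 nM final and 16 hr incubation at 37C. Reporter was beta-lactamase driven by UAS in HEK293T (PR-UAS-bla), 2% charcoal-stripped serum; signal from LiveBLAzer FRET substrate, 2 hr at room temperature.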

COP(=S)(Cl)OC
inconclusive: Potency [1] 69.2 µM | Potency [2] 4.94 µM | activation [3] -14.6% | Potency [4] 32 µM | Potency [5] 11.1 µM | Potency [6] 69.2 µM | Potency [7] 0.246 µM | Potency [8] 28.5 µM | Potency [9] 71.6 µM

Cc1cc([N+](=O)[O-])c(O)c([N+](=O)[O-])c1
inconclusive: Potency [10] 39.3 µM | Potency [11] 39.3 µM | Potency [12] 39.3 µM | Potency [13] 55 µM | Potency [14] 77.7 µM | activity change, negative = inhibition [15] 24.3% | viability change, negative = cytotoxic [16] -33.9% | activation [17] -0.521% | activation [3] 9.54% | Potency [18] 55 µM | Potency [19] 55 µM | Potency [20] 62.3 µM | Potency [21] 62.3 µM | Potency [22] 62.3 µM | Potency [23] 62.3 µM | Potency [24] 34.7 µM | Potency [6] 77.7 µM | activation [25] 15.5% | activity change, negative = inhibition [26] 1.1%
